Key:
Format in all cases: cell-based
[1] = target: T1, Serine/threonine-protein kinase B-raf (Homo sapiens, UniProt P15056); test: Inhibition of B-Raf-mediated Erk phosphorylation in human HFF cells after 60 mins by Western blot analysis
[2] = target: T1, Serine/threonine-protein kinase B-raf; test: Inhibition of B-Raf-mediated Erk phosphorylation in human HMEC cells after 60 mins by Western blot analysis
[3] = target: T1, Serine/threonine-protein kinase B-raf; test: Inhibition of B-Raf-mediated Erk phosphorylation in human PREC cells after 60 mins by Western blot analysis

By UniProt entry, the sequences of proteins in these tests, tags left out.
UniProt P15056, whole entry: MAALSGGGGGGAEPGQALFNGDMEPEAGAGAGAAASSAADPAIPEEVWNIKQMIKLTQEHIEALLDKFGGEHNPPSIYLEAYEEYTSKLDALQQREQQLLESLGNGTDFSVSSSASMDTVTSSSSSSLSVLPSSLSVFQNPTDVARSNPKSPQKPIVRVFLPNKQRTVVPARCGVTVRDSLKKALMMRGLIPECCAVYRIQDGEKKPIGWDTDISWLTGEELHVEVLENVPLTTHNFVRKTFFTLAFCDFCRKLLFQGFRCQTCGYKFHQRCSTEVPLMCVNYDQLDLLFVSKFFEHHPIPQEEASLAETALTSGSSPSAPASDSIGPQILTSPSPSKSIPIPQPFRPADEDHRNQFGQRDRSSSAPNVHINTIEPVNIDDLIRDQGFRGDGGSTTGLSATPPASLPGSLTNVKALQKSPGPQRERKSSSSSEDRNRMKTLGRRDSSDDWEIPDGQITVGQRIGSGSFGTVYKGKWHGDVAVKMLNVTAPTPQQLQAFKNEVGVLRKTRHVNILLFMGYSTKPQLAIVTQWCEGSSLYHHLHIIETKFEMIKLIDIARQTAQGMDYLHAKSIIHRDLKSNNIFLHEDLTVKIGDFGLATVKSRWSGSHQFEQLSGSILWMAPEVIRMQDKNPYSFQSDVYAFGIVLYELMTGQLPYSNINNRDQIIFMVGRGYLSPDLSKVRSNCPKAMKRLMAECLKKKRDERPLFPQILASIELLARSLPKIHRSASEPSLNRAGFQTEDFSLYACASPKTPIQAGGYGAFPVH

EC50 [1]: 1100 nM
EC50 [2]: 1100 nM
EC50 [3]: 1100 nM
Compound: CN(C)CCOc1ccc(-c2nc(-c3ccncc3)c(-c3ccc4c(c3)CC/C4=N\O)[nH]2)cc1 [SB590885]

Reference: ChEMBL document CHEMBL1944549, “Small molecule inhibitors of BRAF in clinical trials” (Bioorg Med Chem Lett, 2012)
